Consider three molecules from patent US7060449.

What all share (settings): modification not given
The target in experiment [1] is T1, rat GALR2 (rat).
T1 chain: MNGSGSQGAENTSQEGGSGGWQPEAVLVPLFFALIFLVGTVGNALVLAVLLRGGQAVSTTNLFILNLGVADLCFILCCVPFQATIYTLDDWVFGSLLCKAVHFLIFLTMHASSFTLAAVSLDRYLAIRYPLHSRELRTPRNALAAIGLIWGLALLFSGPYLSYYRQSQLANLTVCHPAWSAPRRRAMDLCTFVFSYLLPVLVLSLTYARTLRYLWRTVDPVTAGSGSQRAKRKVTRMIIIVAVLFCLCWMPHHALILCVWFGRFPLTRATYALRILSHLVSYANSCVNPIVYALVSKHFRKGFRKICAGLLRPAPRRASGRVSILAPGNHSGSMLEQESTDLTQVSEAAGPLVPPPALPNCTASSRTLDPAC
Put plainly: competition, CHO.

In experiment [2] the target is T1, rat GALR2 (rat). Put plainly: competition, COS-7.
For the next experiment, the target named is T2, human GALR2 (human).
T2 chain: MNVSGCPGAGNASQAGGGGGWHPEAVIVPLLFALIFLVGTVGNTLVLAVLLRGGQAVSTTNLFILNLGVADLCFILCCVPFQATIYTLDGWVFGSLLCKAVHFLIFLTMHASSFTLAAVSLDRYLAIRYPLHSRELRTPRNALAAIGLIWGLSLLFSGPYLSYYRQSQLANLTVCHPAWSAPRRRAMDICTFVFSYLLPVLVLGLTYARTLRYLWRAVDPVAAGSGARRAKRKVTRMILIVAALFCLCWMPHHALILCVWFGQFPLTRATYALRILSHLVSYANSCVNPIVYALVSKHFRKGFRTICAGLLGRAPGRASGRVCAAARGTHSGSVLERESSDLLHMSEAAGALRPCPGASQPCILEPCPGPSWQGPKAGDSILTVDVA
In words: competition.

B1: human galanin, P22466 (peptide)
chain: GWTLNSAGYLLGPHAVGNHRSFSDKNGLTS
With B1, the Ki (as a rule, the dissociation constant of the complex between target and ligand, obtained from inhibition or displacement) in the experiment with rat GALR2 (rat) [1] came out at 1.2 nM.

B2: rat galanin, P10683 (peptide)
chain: GWTLNSAGYLLGPHAIDNHRSFSDKHGLT
With B2, the inhibition constant (Ki) with rat GALR2 (rat) [2] and with rat GALR2 (rat) [1] was 0.52 nM each time.

B3: galanin(1-16), P07480 (peptide)
chain: GWTLNSAGYLLGPHAI
Turning to B3, the Ki with human GALR2 (human) was found to be 15 nM. That is a double-digit nanomolar value.
